This assay relates to 3T3-L1 adipocytes. Put plainly: Glucose uptake assay (tritiated deoxyglucose uptake by 3T3-L1 adipocytes). Type of assay: cell-based. The conditions noted are these: for Stimulation Index: (mean of sample − mean of cells alone)/mean of cells alone; for cpm Average (glucose up-take): average of Sets I-III. The method, then:
The deoxy-glucose uptake assay by fat cells or adipoctes (3T3-L1) help to identify the extracts/bioactives that helps to increase the glucose uptake by the fat cells.
Tritiated deoxyglucose uptake by 3T3-L1 is one of the most accepted assay for the in-vitro screening of active principles with anti-diabetic activity
3T3-L1 fibroblasts were cultured in DME-F12 media containing 10% FCS, NEAA, glutamine, antibiotics, anti-mycotics, etc., in an atmosphere of 5% CO2 at 37° C. Fibroblasts were cultured up to confluency. Subcultures were done at three-day intervals with trypsin-EDTA solution treatment.
Differentiation was induced by treating the cells with DMEM hi glucose (4.5 gm/litre) containing 0.5 mmol/l 3-isobutyl-1-methylxanthine, 4 mg/ml dexamethasone, 1 mg/ml insulin and 10% FCS for 48 h. The cells were cultured in DMEM media with standard pre-described supplements for the next 6-10 days. […] These were taken up for glucose uptake studies with tritiated glucose.
Distribute 50,000 of differentiated 3T3-L1 adipocytes in each well of a new 96 well plate. Incubate with KRH buffer at 37° C. for 10 min. Add insulin 10 nM, 25 nM and 50 nM to the respective. To the experimental sets treatment was done with or without insulin 10 nM in presence of test compound (333.0 μg). This was followed by incubation further at 37° C. for 15 min. Wash the cells once with KRH buffer. Initiate glucose uptake reaction by adding 0.1 mM 2-deoxy glucose containing 2-deoxy[3H] glucose (final concentration 12.2 kBq/ml). Incubate for 1 hr at 37° C. Terminate assay by adding 40 μM Cytochalasin B. Wash the cells trice with ice-cold KRH buffer Solubilize cells in 20 μl 1% Triton X. Incubate for 10 min at 37° C. Count radioactivity on a micro-titre plate radioactive counter
Glucose uptake activity was analyzed by measuring the uptake of 0.1 mM deoxy-glucose containing deoxy-tritiated-glucose containing 2.2 kBq/mL.

For the substance insulin, where the note is “Insulin 10 nM”, the “Stimulation Index” value is on record as 2.6, the “cpm Set I (glucose up-take)” value is given as 2185.8 cpm, the “cpm Set II (glucose up-take)” value came to 1705.4 cpm and the “cpm Set III (glucose up-take)” value was 3010.7 cpm. In addition, where the note is “Insulin 10 nM”, the “cpm Average (glucose up-take)” value was determined as 2300.63 cpm. For the same substance, for the setting “Insulin 25 nM”, the “Stimulation Index” value is 2.8, the “cpm Set I (glucose up-take)” value is on record as 4806.8 cpm, the “cpm Set II (glucose up-take)” value amounted to 1399.7 cpm and the “cpm Set III (glucose up-take)” value was found to be 996.7 cpm. Further, the “cpm Average (glucose up-take)” value (Insulin 25 nM) is on record as 2401.07 cpm. Also, for the setting “Insulin 100 nM”, the “Stimulation Index” value was 3.7, the “cpm Set I (glucose up-take)” value stood at 2906.5 cpm, the “cpm Set II (glucose up-take)” value is given as 3776.6 cpm and the “cpm Set III (glucose up-take)” value was 2215.6 cpm. In addition, the “cpm Average (glucose up-take)” value (Insulin 100 nM) is on record as 2966.23 cpm.

For the origin of these results see patent US20100129478A1, “Plant Extracts and Methods and Uses Therefore” (priority 2005, published 2010).
